From US8435762B2, “Chimeric ligand-gated ion channels and methods of use thereof” (Howard Hughes Medical Institute, priority 2008, dated 2013)

By UniProt entry, the sequences of proteins in these tests, tags left out. Chains listed by the source or under a name are the forms on record and can include a tag or linker. Residues count along the entry.
UniProt P36544, 23-229 with tags or gaps M226I/T225I: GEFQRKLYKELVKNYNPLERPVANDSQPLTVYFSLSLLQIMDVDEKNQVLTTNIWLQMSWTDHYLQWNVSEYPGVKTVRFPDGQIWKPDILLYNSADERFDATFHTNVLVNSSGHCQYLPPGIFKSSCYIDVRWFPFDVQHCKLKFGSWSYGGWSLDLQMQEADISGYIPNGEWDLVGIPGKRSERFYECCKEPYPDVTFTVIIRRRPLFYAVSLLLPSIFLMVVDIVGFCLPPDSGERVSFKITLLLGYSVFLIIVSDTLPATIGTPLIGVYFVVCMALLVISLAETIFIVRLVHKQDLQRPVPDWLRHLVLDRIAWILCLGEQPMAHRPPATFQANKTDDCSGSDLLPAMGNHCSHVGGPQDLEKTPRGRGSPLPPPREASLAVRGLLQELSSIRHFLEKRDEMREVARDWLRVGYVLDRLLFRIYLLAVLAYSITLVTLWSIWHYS
UniProt P36544, 23-229 with tags or gaps M226I/Q79G/T225I: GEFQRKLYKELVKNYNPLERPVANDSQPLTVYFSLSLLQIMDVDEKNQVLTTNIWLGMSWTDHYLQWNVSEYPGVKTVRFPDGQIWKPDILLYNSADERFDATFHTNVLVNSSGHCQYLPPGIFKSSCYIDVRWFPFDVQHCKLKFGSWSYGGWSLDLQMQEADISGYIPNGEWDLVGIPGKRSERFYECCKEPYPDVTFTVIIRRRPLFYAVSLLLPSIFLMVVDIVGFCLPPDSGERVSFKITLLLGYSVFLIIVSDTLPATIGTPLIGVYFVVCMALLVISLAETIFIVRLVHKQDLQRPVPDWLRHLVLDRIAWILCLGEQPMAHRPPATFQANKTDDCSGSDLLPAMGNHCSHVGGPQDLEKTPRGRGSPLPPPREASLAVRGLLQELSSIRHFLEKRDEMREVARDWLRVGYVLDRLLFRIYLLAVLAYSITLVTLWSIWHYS
UniProt P36544, 23-229 with tags or gaps L141F/M226I/T225I: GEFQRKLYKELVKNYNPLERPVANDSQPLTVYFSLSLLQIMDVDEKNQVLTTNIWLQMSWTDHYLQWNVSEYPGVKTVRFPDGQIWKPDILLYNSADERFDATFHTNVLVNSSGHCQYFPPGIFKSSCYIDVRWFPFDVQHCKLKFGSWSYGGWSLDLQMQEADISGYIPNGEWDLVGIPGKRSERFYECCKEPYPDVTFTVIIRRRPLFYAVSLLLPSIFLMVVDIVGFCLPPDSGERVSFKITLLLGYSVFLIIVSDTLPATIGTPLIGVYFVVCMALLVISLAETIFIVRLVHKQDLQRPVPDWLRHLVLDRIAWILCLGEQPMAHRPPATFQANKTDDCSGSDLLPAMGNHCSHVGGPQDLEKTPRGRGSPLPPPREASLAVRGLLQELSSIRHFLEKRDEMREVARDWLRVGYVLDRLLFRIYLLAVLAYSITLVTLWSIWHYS

How the values were obtained:
Assay in all cases: fluorescence membrane potential (MP) assay, HEK 293 cells
Assay type in all cases: cell-based, human/mouse
Details in all cases: read-out: EC50-MP, IPD 5HT3, value (s.e.m.)
α7-5HT3 L141F = α7-5HT3 L141F (Homo sapiens, UniProt P36544, L141F/M226I/T225I)
α7-5HT3 Q79G = α7-5HT3 Q79G (Homo sapiens, UniProt P36544, M226I/Q79G/T225I)
[1] = target: α7-5HT3 wt chimeric receptor (Homo sapiens, UniProt P36544, M226I/T225I)

Structure (SMILES) | EC50 (α7-5HT3 L141F) | EC50 (α7-5HT3 Q79G) | EC50 [1]
CSc1nccc(N2CC3CC2CN3)n1 (stereo not drawn) | 0.1 µM | > 100 µM | > 100 µM
c1ccc2nc3c(cc2c1)N1CCC3CC1 | 10 µM | > 100 µM | > 100 µM
